Source: patent US5010106A, “Method of sterilizing anthers of plants” (dated 1991)

How the values were obtained:
animals = test: Toxicity in experiments on animals
[1] = test system: tetraploid rye of Ukrainskaya tetra variety; test: Chemical sterilization of anthers, field test, tetraploid rye (isolated ears / open pollination); conditions: Table 5, 1% aqueous emulsion, 8 kg/ha; for Number of grains in ear under isolator: control 28.0 (Examples 24, 25), 36.1 (Examples 26, 27); for Number of grains in ear in open pollination: control 36.8 (Examples 24, 25), 40.2 (Examples 26, 27); for Percentage of grain setting in open pollination: control = 100%
[2] = test system: spring wheat of Botanicheskaya 4 variety; test: Chemical sterilization of anthers, field test, spring wheat (isolated ears / open pollination); conditions: Table 3, spring wheat Botanicheskaya 4, V-th stage, 1% aqueous emulsion, 6 kg/ha; for Number of grains in ear under isolator: control 28.9; for Number of grains in ear in open pollination: control 30.9; for Percentage of grain setting in open pollination: control = 100%
[3] = test system: spring wheat of Moskovskaya 35 variety; test: as above; conditions: Table 2, spring wheat Moskovskaya 35, VI-th stage, 1% aqueous emulsion, 8 kg/ha; for Number of grains in ear under isolator: control 29.4
[4] = test system: diploid rye of Kharkovskaya 55 variety; test: Chemical sterilization of anthers, field test, diploid rye (isolated ears / open pollination); conditions: Table 6, diploid rye Kharkovskaya 55, 1% aqueous emulsion, 6 kg/ha
[5] = test system: winter wheat of Mironovskaya 808 variety; test: Chemical sterilization of anthers, field test, winter wheat (isolated ears / open pollination); conditions: Table 1, winter wheat Mironovskaya 808, V-th stage, 2% aqueous emulsion, 12 kg/ha
[6] = test system: triticale of PRAG-109 variety; test: Chemical sterilization of anthers, field test, triticale (isolated ears / open pollination); conditions: Table 7, triticale PRAG-109, V-th stage, 2% aqueous emulsion, 12 kg/ha
[7] = test system: triticale of Amphidiploid 206 variety; test: as above; conditions: Table 8, triticale Amphidiploid 206, VI-th stage, 2% aqueous emulsion, 12 kg/ha
[8] = test system: millet of Mironovskoye 94 variety; test: Chemical sterilization of anthers, field test, millet (isolated panicles / open pollination); conditions: Table 9, millet Mironovskoye 94, V-th stage, 1% aqueous emulsion, 10 kg/ha
sunflower of BK-119 line = test: Chemical sterilization of sunflower pollen; conditions: Table 13, V-th stage, 0.2% aqueous emulsion, 1.2 kg/ha
[9] = test system: sunflower of Peredovik variety; test: Chemical sterilization of sunflower pollen; conditions: Table 13, V-th stage, 0.2% aqueous emulsion, 1.2 kg/ha

CC1=CCC2CC1C2(C)C (centres unmarked)
LD50 (animals): 3,700 mg/kg | Sterility percentage [1]: 100.0% | Number of grains in ear under isolator [1]: 0.0 | Number of grains in ear in open pollination [1]: 36.3 | Percentage of grain setting in open pollination [1]: 98.6% | Percentage of sterility [2]: 100.0% | Number of grains in ear under isolator [2]: 0.0 | Number of grains in ear in open pollination [2]: 29.2 | Percentage of grain setting in open pollination [2]: 94.5% | Sterility percentage [3]: 100.0% | Number of grains in ear under isolator [3]: 0.0

CC1=CCC2C(C1)C2(C)C (centres unmarked)
Sterility percentage [4]: 98.1% | Number of grains in ear under isolator ([4]; control 31.5): 0.6 | Number of grains in ear in open pollination ([4]; control 39.4): 36.7 | Percentage of grain setting in open pollination ([4]; control = 100%): 93.1% | Sterility percentage [5]: 100.0% | Number of grains in ear under isolator ([5]; control 40.6): 0.0 | Number of grains in ear in open pollination ([5]; control 42.6): 39.7 | Percentage of setting of seeds in open pollination ([5]; control = 100%): 93.2% | Sterility percentage [6]: 99.3% | Number of grains in ear under isolator ([6]; control 41.3): 0.3 | Number of grains in ear in open pollination ([6]; control 45.8): 37.6 | Percentage of grain setting in open pollination ([6]; control = 100%): 82.1% | Sterility percentage [7]: 100.0% | Number of grains in ear under isolator ([7]; control 23.4): 0.0 | Number of grains in ear in open pollination ([7]; control 25.2): 23.8 | Percentage of grain setting in open pollination ([7]; control = 100%): 94.4% | Sterility percentage [1]: 99.6% | Number of grains in ear under isolator [1]: 0.1 | Number of grains in ear in open pollination [1]: 37.3 | Percentage of grain setting in open pollination [1]: 92.8% | Percentage of sterility [2]: 100.0% | Number of grains in ear under isolator [2]: 0.0 | Number of grains in ear in open pollination [2]: 27.8 | Percentage of grain setting in open pollination [2]: 90.0% | Sterility percentage [3]: 99.3% | Number of grains in ear under isolator [3]: 0.2 | Number of grains in ear in open pollination ([3]; control 31.2): 29.0 | Percentage of grain setting in open pollination ([3]; control = 100%): 92.9% | Sterility percentage [8]: 100.0% | Number of grains in panicle under isolator ([8]; control 124.9): 0.0 | Number of sterile plants (sunflower of BK-119 line; control 0.0): 100.0% | Oil content of achenes (sunflower of BK-119 line; control 51.0): 51.7% | Mass of 1,000 achenes (sunflower of BK-119 line; control 60.0): 56.7 g | Percentage of setting of achenes pollination with the pollen mixture under isolator (sunflower of BK-119 line; control 72.6): 0.0% | Percentage of setting in open pollination (sunflower of BK-119 line; control 85.0): 82.5% | Germination rate of achenes (sunflower of BK-119 line; control 100.0): 100.0% | Number of sterile plants ([9]; control 0.0): 100.0% | Oil content of achenes ([9]; control 54.7): 53.6% | Mass of 1,000 achenes ([9]; control 84.0): 84.0 g | Percentage of setting in open pollination ([9]; control 85.0): 85.3% | Percentage of setting of achenes pollination with the pollen mixture under isolator ([9]; control 85.0): 0.0% | Germination rate of achenes ([9]; control 100.0): 100.0%
